This is an account of results in BindingDB's records for doi:10.1021/jm00164a002 (Syntex Research, 1990).

In this assay the target is T1, Neutrophil elastase (Homo sapiens, UniProt P08246).
T1 sequence (P08246 whole entry): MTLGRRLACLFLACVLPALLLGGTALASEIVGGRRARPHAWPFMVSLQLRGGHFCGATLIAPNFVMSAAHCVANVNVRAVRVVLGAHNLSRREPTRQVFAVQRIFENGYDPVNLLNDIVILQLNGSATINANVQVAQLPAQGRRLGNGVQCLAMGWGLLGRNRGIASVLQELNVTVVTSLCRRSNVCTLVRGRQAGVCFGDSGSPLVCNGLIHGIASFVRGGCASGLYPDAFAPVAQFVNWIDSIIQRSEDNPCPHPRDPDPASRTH
Nature of the assay: Component deacylation rate constant for interaction with human leukocyte elastase.

The structures appear in SMILES notation.

As usually defined, the koff is a measure of how fast the partners let go of each other. Read a low koff as a long-lived complex. By kon is commonly meant a measure of how fast the partners come together. `CCc1cccc2nc(C)oc(=O)c12`: the off-rate constant (koff) worked out at 0.00776 s⁻¹. In addition, for the setting “read-out: kon (M-1-s-1)”, the kon stood at 64600 M⁻¹ s⁻¹.
